Data set [1] can be described thus: Drug solubilization by PEG-b-PLA micelles (drug level in water, reverse phase HPLC). Particulars: SDM or MDM, PEG-b-PLA (4.2K:1.9K) micelles.
The nature of data set [2]: Physical stability / drug loss from PEG-b-PLA micelles after 24 hours (turbidity, HPLC). The class given is physicochemical. Particulars: analyte 17-AAG. As to the method: Turbidity measurements were used to evaluate the physical stability of drug-loaded PEG-b-PLA micelles. A CARY 50 BIO UV-Visible spectrophotometer equipped with dip probe was used to measure turbidity. Micellar solutions were diluted six times, for a final concentration of PEG-b-PLA of 5 mg/mL, with DD H2O and filtered through 0.45 μm filter. […] Each measurement was performed in triplicate.

Each structure is given as a SMILES string.

In the case of `COc1cc([C@@H]2c3cc4c(cc3[C@@H](O[C@@H]3O[C@@H]5CO[C@@H](C)O[C@H]5[C@H](O)[C@H]3O)[C@H]3COC(=O)[C@H]23)OCO4)cc(OC)c1O` [Etoposide], the “drug level in water” value in data set [1] (analyte etoposide, listed as ETO) stood at 3170 µg/mL.

As to `C=CCNC1=C2C[C@@H](C)C[C@H](OC)[C@H](O)[C@@H](C)/C=C(\C)[C@H](OC(N)=O)[C@@H](OC)/C=C\C=C(/C)C(=O)NC(=CC1=O)C2=O` [17-AAG, 17-allylamino-17-demethoxygeldanamycin], the “% w/w drug(s) left @ 24 hr” value in data set [2] is given as 98.6 ± 2.4 % w/w. Moreover, the “drug level in water” value in data set [1] (analyte 17-AAG) worked out at 4210 µg/mL.
